Measurements from patent US20210379099A1 (priority 2020, published 2021).
Some compounds may have been tested in ways that are not shown here.

Legend:
[1] = ITC of CB[8]•guest complexes; assay type: binding
[2] = ITC of Me4CB[8]•guest complexes; assay type: binding
[3] = ITC best fit, 20 mM NaH2PO4 buffer (pH=7.4), figure legends
[4] = ITC best fit, 20 mM NaH2PO4 buffer (pH=7.4), figure legends and text
[5] = ITC sequential binding sites model, pH=7.4
[6] = ITC, 20 mM NaH2PO4 buffer (pH = 7.4), 298K, n = 1, Table 1
[7] = ITC, pH 7.4, 298K, n = 2, Table 1

Structure (SMILES): CCC(=O)N(c1ccccc1)C1CCN(CCc2ccccc2)CC1
- ΔH (ΔH1) of guest with CB[8] [1, 3]: −10.8±0.06
- Ka (Ka1) of guest with CB[8] [1, 4]: (1.9±0.09)×10^7 M^−1
- Ka2 of guest with CB[8] [1, 5]: (3.7±0.04)×10^5 M^−1
- ΔH2 of guest with CB[8] [1, 5]: −7.67±0.04
- Ka (CB[8]•G) [1, 6]: (1.9 ± 0.09) × 10^7 M^−1
- ΔH° (CB[8]•G) [1, 6]: (−10.8 ± 0.06) kcal/mol
- Ka (CB[8]•guest) ([1]; ITC, n = 1, Table 2): (1.9 ± 0.09) × 10^7 M^−1
- ΔG° (CB[8]•guest) ([1]; ITC, n = 1, Table 2): -9.94 kcal/mol
- ΔH° (CB[8]•guest) ([1]; ITC, n = 1, Table 2): (−10.8 ± 0.06) kcal/mol
- Ka (CB[8]•guest), second binding ([1]; ITC, n = 2, Table 2): (3.7 ± 0.04) × 10^5 M^−1
- ΔG° (CB[8]•guest), second binding ([1]; ITC, n = 2, Table 2): -7.60 kcal/mol
- ΔH° (CB[8]•guest), second binding ([1]; ITC, n = 2, Table 2): (−7.67 ± 0.04) kcal/mol
- Ka (CB[8]•G), second binding ([1]; ITC, pH 7.4, 298K, n = 2 (second guest, sequential binding), Table 1): (3.7 ± 0.04) × 10^5 M^−1
- ΔH° (CB[8]•G), second binding [1, 7]: (−7.67 ± 0.04) kcal/mol
- ΔH (ΔH1) of guest with Me4CB[8] [2, 3]: −3.58±0.01
- Ka (Ka1) of guest with Me4CB[8] [2, 4]: (1.98±0.02)×10^6 M^−1
- Ka2 of guest with Me4CB[8] [2, 5]: (9.52±0.03)×10^4 M^−1
- ΔH2 of guest with Me4CB[8] [2, 5]: −1.94±0.01
- Ka (Me4CB[8]•G) [2, 6]: (1.98 ± 0.02) × 10^6 M^−1
- ΔH° (Me4CB[8]•G) [2, 6]: (−3.58 ± 0.01) kcal/mol
- Ka (Me4CB[8]•guest) ([2]; ITC, n = 1, Table 3): (1.98 ± 0.02) × 10^6 M^−1
- ΔH° (Me4CB[8]•guest) ([2]; ITC, n = 1, Table 3): (−3.58 ± 0.01) kcal/mol
- Ka (Me4CB[8]•guest), second binding ([2]; ITC, n = 2, Table 3): (9.52 ± 0.03) × 10^4 M^−1
- ΔH° (Me4CB[8]•guest), second binding ([2]; ITC, n = 2, Table 3): (−1.94 ± 0.01) kcal/mol
- Ka (Me4CB[8]•G), second binding [2, 7]: (9.52 ± 0.03) × 10^4 M^−1
- ΔH° (Me4CB[8]•G), second binding [2, 7]: (−1.94 ± 0.01) kcal/mol
